This is a selection: effects in other tests are not listed, and their absence says nothing.
Assays:
PANC-1 = assay: MTT cytotoxicity, PANC-1; conditions: read-out: IC50, PANC-1, cancer cell line, 48 h incubation
HuTu 80 = assay: MTT cytotoxicity, HuTu 80; conditions: read-out: IC50, HuTu 80, cancer cell line, 48 h incubation
Chang Liver = assay: MTT cytotoxicity, normal Chang liver; conditions: read-out: IC50, Chang Liver, normal cell line, 48 h incubation

Measured: IC50

O=[N+]([O-])c1cc([N+](=O)[O-])c2no[n+]([O-])c2c1Cl
> 100 µM: all assays above
